Test results from US20020019394A1, “Bicyclic sulfonyl amino inhibitors of factor Xa” (priority 2000, published 2002).

Protein sequences, listed by entry. Tags and fused reporters are not part of them. Residues count along the entry.
UniProt P00742, 41-179 limits assumed: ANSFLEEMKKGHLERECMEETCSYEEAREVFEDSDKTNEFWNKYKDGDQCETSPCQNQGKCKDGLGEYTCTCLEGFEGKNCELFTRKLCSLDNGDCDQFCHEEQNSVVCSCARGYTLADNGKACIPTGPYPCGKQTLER
UniProt P00742, 235-488 limits assumed: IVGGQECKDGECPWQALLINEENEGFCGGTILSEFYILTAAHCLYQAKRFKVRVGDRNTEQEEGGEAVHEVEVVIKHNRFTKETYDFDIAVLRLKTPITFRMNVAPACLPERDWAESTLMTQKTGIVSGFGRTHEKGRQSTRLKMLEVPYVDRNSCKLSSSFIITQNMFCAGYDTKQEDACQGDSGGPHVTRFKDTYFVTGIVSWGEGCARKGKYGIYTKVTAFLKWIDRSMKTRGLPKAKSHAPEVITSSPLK

What was measured:
[1] = target: factor Xa (Homo sapiens, UniProt P00742); experiment: Factor Xa amidolytic assay (chromogenic substrate S-2765)
[2] = target: prothrombinase complex (Homo sapiens, UniProt P00742); experiment: Prothrombinase inhibition assay, plasma free system; format: biochemical; conditions: Table 4
Experimental: The prothrombinase inhibition assay is performed in a plasma free system with modifications to the method described by Sinha, U. et al., Thromb. […] Specifically, the activity of the prothrombinase complex is determined by measuring the time course of thrombin generation using the p-nitroanilide substrate Chromozym TH. […] Aliquots from the complex-inhibitor mixture are added to prothrombin (1 nM) and Chromozym TH (0.1 mM). […] Eight different concentrations of inhibitor are assayed in duplicate. A standard curve of thrombin generation by an equivalent amount of untreated complex is used for determination of percent inhibition.

CC(=N)N1CCC(Oc2ccc(N(Cc3cc(C)nn3-c3cccc(C(=N)N)c3)S(C)(=O)=O)cc2)CC1 [Compound 16]
IC50 [1]: 6.29 µM
IC50 [2]: > 11000 nM
